Values of other authors, collected in patent US8835432B2, “Heterocyclic compounds and their uses” (Amgen Inc., priority 2012, dated 2014).
pIC50: −log10 of the molar value.

Amino acid sequences for entries named in this document (tags omitted).
UniProt P42338, whole entry, species assumed: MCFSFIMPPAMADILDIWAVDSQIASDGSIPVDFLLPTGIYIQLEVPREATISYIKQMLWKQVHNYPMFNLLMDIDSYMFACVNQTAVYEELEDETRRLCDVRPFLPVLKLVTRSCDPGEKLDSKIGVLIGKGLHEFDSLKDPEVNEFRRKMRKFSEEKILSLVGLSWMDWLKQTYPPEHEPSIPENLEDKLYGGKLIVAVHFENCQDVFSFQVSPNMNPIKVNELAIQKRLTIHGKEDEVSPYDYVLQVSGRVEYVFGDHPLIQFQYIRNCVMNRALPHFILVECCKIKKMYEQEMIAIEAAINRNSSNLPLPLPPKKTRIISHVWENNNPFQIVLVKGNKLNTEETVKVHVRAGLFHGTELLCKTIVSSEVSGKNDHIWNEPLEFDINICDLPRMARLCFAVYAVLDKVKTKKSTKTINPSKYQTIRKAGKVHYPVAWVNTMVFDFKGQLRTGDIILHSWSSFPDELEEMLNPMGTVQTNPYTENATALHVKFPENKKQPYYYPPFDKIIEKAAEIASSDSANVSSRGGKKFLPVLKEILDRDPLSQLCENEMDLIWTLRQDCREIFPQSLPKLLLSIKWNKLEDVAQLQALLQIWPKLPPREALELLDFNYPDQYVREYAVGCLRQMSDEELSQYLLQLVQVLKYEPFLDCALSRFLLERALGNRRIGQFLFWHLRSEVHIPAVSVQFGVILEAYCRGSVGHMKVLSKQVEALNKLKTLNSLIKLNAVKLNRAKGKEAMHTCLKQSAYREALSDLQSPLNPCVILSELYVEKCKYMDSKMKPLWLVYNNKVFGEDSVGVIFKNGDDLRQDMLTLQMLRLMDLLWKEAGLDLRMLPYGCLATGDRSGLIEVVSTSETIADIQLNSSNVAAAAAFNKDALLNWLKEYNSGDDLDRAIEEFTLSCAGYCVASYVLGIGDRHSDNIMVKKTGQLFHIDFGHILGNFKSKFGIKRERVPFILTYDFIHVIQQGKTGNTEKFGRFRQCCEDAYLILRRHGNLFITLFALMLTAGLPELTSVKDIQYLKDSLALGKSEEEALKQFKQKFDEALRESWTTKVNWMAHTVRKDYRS

Molecular target: P110β (Homo sapiens, UniProt P42338)
Details: read-out: potency on beta; cited from earlier work

Cc1cc(C(C)Nc2ccccc2)c2nc(N3CCOCC3)cc(=O)n2c1 (stereo not shown) [TGX-221]
pIC50: 8.15
